Biological target: GST-syntenin full length (human) (UniProt O00560)
Assay: FRET; competition with biotinylated SDC2 peptide (HTRF)

IC50: 30 µM
Substance: SDC2 cognate peptide (competitor in HTRF)

— paper PMC7737769, “Pharmacological inhibition of syntenin PDZ2 domain impairs breast cancer cell activities and exosome loading with syndecan and EpCAM cargo” (Journal of Extracellular Vesicles, 2020)
